Measured values from PMC4035770 (2014).
Where a name gives a salt, the structure may show the parent alone.

The chains behind the UniProt entries cited, without tags or fusion partners.
UniProt P23975, whole entry: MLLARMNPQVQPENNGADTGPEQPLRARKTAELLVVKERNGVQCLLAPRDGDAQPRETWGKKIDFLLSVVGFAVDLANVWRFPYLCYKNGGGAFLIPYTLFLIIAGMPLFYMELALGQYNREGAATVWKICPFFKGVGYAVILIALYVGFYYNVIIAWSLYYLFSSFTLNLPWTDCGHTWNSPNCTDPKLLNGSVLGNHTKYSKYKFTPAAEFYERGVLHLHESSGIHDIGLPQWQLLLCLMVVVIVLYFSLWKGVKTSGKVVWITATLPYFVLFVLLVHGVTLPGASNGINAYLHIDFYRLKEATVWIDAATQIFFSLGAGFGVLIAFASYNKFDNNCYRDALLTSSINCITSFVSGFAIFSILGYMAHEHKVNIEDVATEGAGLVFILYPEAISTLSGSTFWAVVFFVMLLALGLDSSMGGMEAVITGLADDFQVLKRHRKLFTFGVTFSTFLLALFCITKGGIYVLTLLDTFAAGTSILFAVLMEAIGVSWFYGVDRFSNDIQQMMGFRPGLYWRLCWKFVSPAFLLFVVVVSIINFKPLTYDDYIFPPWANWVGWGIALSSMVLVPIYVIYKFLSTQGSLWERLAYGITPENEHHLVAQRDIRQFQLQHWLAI

Target: Norepinephrine transporter (NET) (Homo sapiens, UniProt P23975)
Experiment: Pharmacological screen, norepinephrine transporter
Format: binding

How did the IC50 turn out when `CC(NC(C)(C)C)C(=O)c1cccc(Cl)c1` (racemic) [Bupropion, Rac-bupropion hydrochloride, reference compound] was run?
Its IC50 is 19.9 µM.

And the Ki?
Its Ki is 19.8 µM.
